Test: Paraffin wax solubility test
Assay type: physicochemical
Conditions: 2.0 g paraffin wax in 98 g solvent, 25 °C, stirring at 350 rpm
Excerpt: A method to evaluate the capability of a solvent to dissolve paraffin wax was developed and it helps to understand how will be performed certain solvent when applied to an epicuticular surface of a plant or an insect.

CCCCCCCCCCCCCC(=O)OC(C)C [isopropyl myristate]
Dissolution Time: 627 min
